Laboratory results as given in PubChem BioAssay AID588664 (The Scripps Research Institute Molecular Screening Center, 2011).
This is a selection; strong and weak results do not stand in their true shares. Activity calls are given as the source filed them. No stated cut-off is given here; in the data, active means inhibition above about 5% (passing the limit was not always enough); inactive means the rest.

The chains behind the UniProt entries cited, without tags or fusion partners.
UniProt P00519, whole entry, looked up: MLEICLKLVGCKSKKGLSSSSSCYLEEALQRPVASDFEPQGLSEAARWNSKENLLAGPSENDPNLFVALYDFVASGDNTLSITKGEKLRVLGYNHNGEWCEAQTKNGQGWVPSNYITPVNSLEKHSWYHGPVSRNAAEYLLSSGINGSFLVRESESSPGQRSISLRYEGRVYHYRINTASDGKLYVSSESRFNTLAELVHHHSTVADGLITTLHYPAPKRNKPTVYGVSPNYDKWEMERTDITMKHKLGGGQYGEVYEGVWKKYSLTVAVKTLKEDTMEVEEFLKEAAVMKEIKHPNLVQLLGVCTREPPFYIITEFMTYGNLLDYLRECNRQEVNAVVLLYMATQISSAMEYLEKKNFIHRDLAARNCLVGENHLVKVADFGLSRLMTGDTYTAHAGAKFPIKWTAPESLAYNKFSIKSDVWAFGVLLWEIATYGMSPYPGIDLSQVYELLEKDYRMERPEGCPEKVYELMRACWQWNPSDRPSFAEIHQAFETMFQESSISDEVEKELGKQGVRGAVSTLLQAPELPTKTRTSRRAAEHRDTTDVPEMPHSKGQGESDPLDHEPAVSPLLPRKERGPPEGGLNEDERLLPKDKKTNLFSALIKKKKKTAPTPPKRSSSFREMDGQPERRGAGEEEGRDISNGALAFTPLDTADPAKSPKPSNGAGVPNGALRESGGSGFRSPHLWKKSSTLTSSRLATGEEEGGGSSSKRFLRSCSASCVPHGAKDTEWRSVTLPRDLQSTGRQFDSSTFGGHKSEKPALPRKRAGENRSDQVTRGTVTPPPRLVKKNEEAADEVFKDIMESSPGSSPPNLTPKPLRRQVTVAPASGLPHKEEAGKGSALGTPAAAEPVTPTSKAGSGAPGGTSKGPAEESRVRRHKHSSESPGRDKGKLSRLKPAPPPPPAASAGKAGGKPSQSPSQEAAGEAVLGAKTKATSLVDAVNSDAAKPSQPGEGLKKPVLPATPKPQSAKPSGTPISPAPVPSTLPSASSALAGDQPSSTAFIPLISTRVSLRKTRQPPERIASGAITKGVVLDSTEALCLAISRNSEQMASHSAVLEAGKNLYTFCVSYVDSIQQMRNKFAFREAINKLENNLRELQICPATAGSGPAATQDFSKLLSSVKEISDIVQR
UniProt Q13671, whole entry, looked up: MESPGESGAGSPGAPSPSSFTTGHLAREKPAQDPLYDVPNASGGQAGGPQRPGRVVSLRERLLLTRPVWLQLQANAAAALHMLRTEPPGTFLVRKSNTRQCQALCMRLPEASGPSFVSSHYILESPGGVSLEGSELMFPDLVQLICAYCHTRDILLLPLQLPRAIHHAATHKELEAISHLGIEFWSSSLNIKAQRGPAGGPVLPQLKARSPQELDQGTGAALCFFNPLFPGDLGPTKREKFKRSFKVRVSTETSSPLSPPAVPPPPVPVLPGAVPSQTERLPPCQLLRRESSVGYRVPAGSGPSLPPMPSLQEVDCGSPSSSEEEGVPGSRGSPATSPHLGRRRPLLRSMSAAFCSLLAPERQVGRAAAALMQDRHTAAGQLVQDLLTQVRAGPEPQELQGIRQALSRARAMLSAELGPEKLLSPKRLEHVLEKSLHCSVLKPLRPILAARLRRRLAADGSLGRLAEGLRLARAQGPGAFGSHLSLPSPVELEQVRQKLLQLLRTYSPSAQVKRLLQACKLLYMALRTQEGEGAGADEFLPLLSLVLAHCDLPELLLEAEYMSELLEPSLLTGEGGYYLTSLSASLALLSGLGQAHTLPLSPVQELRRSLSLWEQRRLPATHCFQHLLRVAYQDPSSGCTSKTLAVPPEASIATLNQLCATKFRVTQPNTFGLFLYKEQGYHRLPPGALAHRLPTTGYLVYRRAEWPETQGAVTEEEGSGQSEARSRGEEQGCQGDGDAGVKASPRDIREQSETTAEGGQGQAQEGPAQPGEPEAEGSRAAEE

The compounds below were run against Tyrosine-protein kinase ABL1 (Homo sapiens) + Ras and Rab interactor 1 (Homo sapiens) (UniProt P00519+Q13671) (assay: inhibitors of Rin1-Abl protein binding, primary screen, biochemical, TR-FRET (AID 588664)). Conditions: at 7.35 µM, stronger effect = higher value.

How did the inhibition turn out when `COc1ccccc1OP(C)(=O)Nc1c(C)cccc1C` (stereo unspecified) was run?
Its inhibition is inactive: -3.64%.

How did the inhibition turn out when `CN1CCCCC1COC(=O)C1(O)c2ccccc2CCc2ccccc21` (stereo unspecified) was run?
Its inhibition is inactive: -3.48%.

With `CCCOc1ccc(NP(C)(=O)Oc2ccc(Cl)cc2)cc1` (stereo unspecified) as the compound, how does the inhibition read?
Its inhibition is inactive: 0.41%.

`CP(=O)(Nc1ccc(SC(F)(F)F)cc1)Oc1ccccc1` (stereo unspecified) was tested. Which inhibition did it give?
The inhibition was inactive: -0.9%.

For `CCOC(=O)C(CC)C1=NC(C)(C)Cc2ccccc21.O=[N+]([O-])c1cc([N+](=O)[O-])c(O)c([N+](=O)[O-])c1` (stereo unspecified), which inhibition is on record?
The inhibition was inactive: -3.03%.

With `CC1=C2N=C(C=C3N=C(C(C)=C4[N-][C@@](C)([C@@H]5N=C1[C@](C)(CCC(=O)NC[C@@H](C)OP(=O)([O-])O[C@H]1[C@@H](O)[C@@H](n6cnc7cc(C)c(C)cc76)O[C@@H]1CO)[C@H]5CC(N)=O)[C@@](C)(CC(N)=O)[C@@H]4CCC(N)=O)[C@@](C)(CC(N)=O)[C@@H]3CCC(N)=O)C(C)(C)[C@@H]2CCC(N)=O.[C-]#N.[Co+3]` as the compound, how does the inhibition read?
The inhibition was inactive: 0.66%.

`O=[N+]([O-])c1cc([N+](=O)[O-])c(Nc2nnnn2CCO)c([N+](=O)[O-])c1` was tested. Which inhibition did it give?
Its inhibition is inactive: -7.17%.

For `O=[N+]([O-])c1cc([N+](=O)[O-])c(-c2cnn(-c3ccccc3)c2)c([N+](=O)[O-])c1`, which inhibition is on record?
The inhibition was inactive: -1.93%.

Which inhibition does the source give for `Cc1nc2ccc3ccccc3c2s1.O=[N+]([O-])c1cc([N+](=O)[O-])c(O)c([N+](=O)[O-])c1` here?
The inhibition was inactive: 1.35%.

`O=[N+]([O-])c1cc([N+](=O)[O-])c(-n2nnc3ccccc32)c([N+](=O)[O-])c1` was tested. Which inhibition did it give?
The inhibition was inactive: 2.84%.

For `CN(Cc1cccnc1)C(=O)COc1ccc(Cl)c(Cl)c1.O=[N+]([O-])c1cc([N+](=O)[O-])c(O)c([N+](=O)[O-])c1`, which inhibition is on record?
Its inhibition is inactive: 0.29%.

`Cc1cc(C)cc(OP(C)(=O)Nc2ccccn2)c1` (stereo unspecified) was tested. Which inhibition did it give?
The inhibition was inactive: -2.6%.

`CP(=O)(Nc1cccc(Br)c1)Oc1ccccc1` (stereo unspecified) was tested. Which inhibition did it give?
The inhibition was inactive: 1.22%.

For `Cc1ccc(C)c(NP(C)(=O)Oc2ccccc2)c1` (stereo unspecified), which inhibition is on record?
Its inhibition is inactive: 2.95%.

How did the inhibition turn out when `COc1ccccc1OP(C)(=O)Nc1cccc(Br)c1` (stereo unspecified) was run?
Its inhibition is inactive: -1.61%.

How did the inhibition turn out when `Cc1cc(C)cc(OP(C)(=O)Nc2ccc(C)cc2C)c1` (stereo unspecified) was run?
Its inhibition is inactive: -1.16%.

Which inhibition does the source give for `CCOC(=O)c1ccc(NP(C)(=O)Oc2cc(C)cc(C)c2)cc1` (stereo unspecified) here?
Its inhibition is inactive: -1.83%.

Which inhibition does the source give for `CC1=NCCc2c1[nH]c1ccccc21.O=[N+]([O-])c1cc([N+](=O)[O-])c(O)c([N+](=O)[O-])c1` here?
Its inhibition is inactive: 0.34%.

`O=C(O)c1cccc(Nc2c([N+](=O)[O-])cc([N+](=O)[O-])cc2[N+](=O)[O-])c1` was tested. Which inhibition did it give?
Its inhibition is inactive: -6.06%.

`CCOC(=O)c1ccc(NP(C)(=O)Oc2ccccc2)cc1` (stereo unspecified) was tested. Which inhibition did it give?
The inhibition was inactive: 1.63%.

For `Cc1ccc(NP(C)(=O)Oc2ccccc2)c(C)c1` (stereo unspecified), which inhibition is on record?
The inhibition was inactive: 0.31%.

`COc1ccccc1OP(C)(=O)Nc1ccc(C)cc1` (stereo unspecified) was tested. Which inhibition did it give?
Its inhibition is inactive: 1.62%.

For `COc1ccc(OP(C)(=O)Nc2cccc(F)c2)cc1` (stereo unspecified), which inhibition is on record?
The inhibition was inactive: -4.84%.

For `COc1ccccc1OP(C)(=O)Nc1cc(Cl)ccc1C` (stereo unspecified), which inhibition is on record?
The inhibition was inactive: -1.73%.

Which inhibition does the source give for `Cc1cc(C)cc(OP(C)(N)=O)c1` (stereo unspecified) here?
Its inhibition is inactive: -2.35%.

How did the inhibition turn out when `O=[N+]([O-])c1cc([N+](=O)[O-])c(Nc2cccnc2)c([N+](=O)[O-])c1` was run?
The inhibition was inactive: -5.7%.

For `Cc1cccc(C)c1OP(C)(N)=O` (stereo unspecified), which inhibition is on record?
The inhibition was inactive: -2.15%.

`CC(C)(C)c1ccc(OP(C)(=O)Nc2ccc(SC(F)(F)F)cc2)cc1` (stereo unspecified) was tested. Which inhibition did it give?
The inhibition was inactive: -1.26%.

For `O=[N+]([O-])c1ccc2c(c1)C=Nc1ccccc1O2`, which inhibition is on record?
Its inhibition is inactive: -4.49%.

`CCN(CC)CCCOC(=O)C(O)(c1ccccc1)c1ccccc1` was tested. Which inhibition did it give?
The inhibition was inactive: 3.61%.

With `CCOP(C)(=S)SCC(=O)NC(C)C(=O)O` (stereo unspecified) as the compound, how does the inhibition read?
Its inhibition is inactive: 3.1%.

`CCOC(=O)c1ccc(NP(C)(=O)Oc2ccc(OC)cc2)cc1` (stereo unspecified) was tested. Which inhibition did it give?
Its inhibition is inactive: 1.32%.

`O=[N+]([O-])c1cc([N+](=O)[O-])c(O)c([N+](=O)[O-])c1.c1ccc(Oc2ccncc2)cc1` was tested. Which inhibition did it give?
Its inhibition is inactive: -2.77%.

Which inhibition does the source give for `CP(=O)(Nc1ccccn1)Oc1ccc(Cl)cc1` (stereo unspecified) here?
Its inhibition is inactive: 0.88%.

`CP(=O)(Oc1ccccc1)OC(c1ccccc1)C(F)(F)F` (stereo unspecified) was tested. Which inhibition did it give?
The inhibition was inactive: 3.32%.

For `Cc1ccc(Nc2c([N+](=O)[O-])cc([N+](=O)[O-])cc2[N+](=O)[O-])cc1`, which inhibition is on record?
The inhibition was inactive: -4.86%.

Which inhibition does the source give for `Cc1cccc(C)c1OP(C)(=O)Nc1ccc(SC(F)(F)F)cc1` (stereo unspecified) here?
Its inhibition is inactive: -0.89%.

Which inhibition does the source give for `CP(=O)(Nc1ccc(SC(F)(F)F)cc1)Oc1ccc(Cl)cc1` (stereo unspecified) here?
The inhibition was inactive: -1.15%.

`Cc1cc(C)cc(OP(C)(=O)Nc2ccc(SC(F)(F)F)cc2)c1` (stereo unspecified) was tested. Which inhibition did it give?
The inhibition was inactive: -0.66%.

With `CP(=O)(NC(=O)Nc1ccccc1)Oc1ccccc1` (stereo unspecified) as the compound, how does the inhibition read?
The inhibition was inactive: 0.45%.

`CCc1ccc(OP(C)(=O)N2CCN(c3ccc([N+](=O)[O-])cc3)CC2)cc1` (stereo unspecified) was tested. Which inhibition did it give?
Its inhibition is inactive: -8.84%.

Which inhibition does the source give for `CP(=S)(Nn1cnnc1)Oc1ccccc1` (stereo unspecified) here?
Its inhibition is inactive: -0.33%.

Which inhibition does the source give for `COc1ccccc1OP(C)(=O)Nc1ccccc1` (stereo unspecified) here?
The inhibition was inactive: 2.2%.

Which inhibition does the source give for `CP(=O)(Nc1ccccc1Br)Oc1ccccc1` (stereo unspecified) here?
Its inhibition is inactive: 4.1%.

`CP(=O)(OC12CC3CC(CC(C3)C1)C2)OC12CC3CC(CC(C3)C1)C2` was tested. Which inhibition did it give?
The inhibition was inactive: -0.63%.

How did the inhibition turn out when `CCOC(=O)c1ccc(NP(C)(=O)Oc2ccc(Cl)cc2)cc1` (stereo unspecified) was run?
The inhibition was inactive: 1.8%.

Which inhibition does the source give for `CP(=O)(Nc1ccc(Cl)cc1)Oc1ccc(F)cc1` (stereo unspecified) here?
Its inhibition is inactive: 4.7%.

How did the inhibition turn out when `COc1ccccc1OP(C)(=O)Nc1ccccc1Br` (stereo unspecified) was run?
The inhibition was inactive: -2.67%.

With `CC(C)(C)c1ccc(OP(C)(=O)O)cc1` as the compound, how does the inhibition read?
The inhibition was inactive: -2.68%.

Which inhibition does the source give for `CN(C)C(=O)c1c([N+](=O)[O-])cc([N+](=O)[O-])cc1[N+](=O)[O-]` here?
The inhibition was inactive: -0.06%.

For `COc1ccc(OP(C)(=O)Nc2ccc(Br)cc2)cc1` (stereo unspecified), which inhibition is on record?
Its inhibition is inactive: -5.24%.

With `CCN(CC)CC(O)COC(=O)C(O)(c1ccccc1)C1CCCCC1` (stereo unspecified) as the compound, how does the inhibition read?
The inhibition was inactive: -0.15%.

For `CCc1ccc(OP(C)(=O)Nc2cccnc2)cc1` (stereo unspecified), which inhibition is on record?
Its inhibition is inactive: -2.05%.

With `CP(=O)(Oc1ccccc1)N1CCOC1=O` (stereo unspecified) as the compound, how does the inhibition read?
The inhibition was inactive: -1.04%.

With `O=C(OCCCN1CCCC1)C(O)(c1ccccc1)C1CCCCC1` (stereo unspecified) as the compound, how does the inhibition read?
The inhibition was inactive: -2.5%.

How did the inhibition turn out when `COc1ccccc1OP(C)(=O)Nc1c(C)n(C)n(-c2ccccc2)c1=O` (stereo unspecified) was run?
Its inhibition is inactive: 1.39%.
